Laboratory results: ChEMBL document CHEMBL1129509, “Hypoxia-selective antitumor agents. 12. Nitrobenzyl quaternary salts as bioreductive prodrugs of the alkylating agent mechlorethamine” (1996)

Test system: CHO-AA8
Assay: Cytotoxicity against AA8 cell and IC50 values were determined as drug concentration required to inhibit cell protein to 50%.

CN(CCCl)CCCl showed an IC50 of 2000 nM.
